Assay results published in patent US10471127B2, “Peptide pharmaceuticals for insulin resistance” (Mederis Diabetes, LLC, priority 2011, dated 2019).

Amino acid sequences for entries named in this document (tags omitted). Residues count along the entry.
UniProt P43220, 24-463 limits assumed: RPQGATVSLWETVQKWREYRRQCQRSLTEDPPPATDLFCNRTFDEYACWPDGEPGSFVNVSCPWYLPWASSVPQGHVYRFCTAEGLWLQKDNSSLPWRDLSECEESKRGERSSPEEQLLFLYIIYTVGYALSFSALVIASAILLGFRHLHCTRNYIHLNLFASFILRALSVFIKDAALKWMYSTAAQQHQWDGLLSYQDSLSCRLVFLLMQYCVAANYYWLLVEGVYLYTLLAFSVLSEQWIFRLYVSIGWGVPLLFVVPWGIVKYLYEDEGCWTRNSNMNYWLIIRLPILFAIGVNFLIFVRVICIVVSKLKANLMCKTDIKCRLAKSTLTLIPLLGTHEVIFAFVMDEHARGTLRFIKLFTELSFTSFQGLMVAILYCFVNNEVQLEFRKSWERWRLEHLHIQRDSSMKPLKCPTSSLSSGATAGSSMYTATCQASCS

Biological target: GLP-1 R (UniProt P43220)
Assay: GLP-1 cellular assay, stimulation of cAMP levels (Cerep SA)
Assay type: cell-based
Details: read-out: EC50 GLP-1 R; cAMP generated in cells; n.c. means EC50 not calculable

EC50 | SMILES
3000 nM | CCCCCCCCCCCCO[C@@H]1O[C@H](C(=O)NCCCC[C@H](NC(=O)[C@H](CCCNC(=N)N)NC(=O)[C@@H]2CCC(=O)NCCCC[C@H](NC(=O)[C@H](CO)NC(=O)[C@H](Cc3ccc(O)cc3)NC(=O)[C@H](CC(=O)O)NC(=O)[C@H](CO)NC(=O)[C@@H](NC(=O)[C@H](Cc3ccccc3)NC(=O)[C@@H](NC(=O)CNC(=O)[C@H](CCC(N)=O)NC(=O)C(C)(C)NC(=O)[C@@H](N)Cc3c[nH]cn3)[C@@H](C)O)[C@@H](C)O)C(=O)N[C@@H](Cc3ccc(O)cc3)C(=O)N[C@@H](CC(C)C)C(=O)N[C@@H](CC(=O)O)C(=O)N2)C(=O)NC(C)(C)C(N)=O)[C@@H](O)[C@H](O)[C@H]1O
270 nM | CCCCCCCCCCCCO[C@@H]1O[C@H](C(=O)NCCCC[C@H](NC(=O)[C@H](CCC(N)=O)NC(=O)C(C)(C)NC(=O)[C@H](CC(=O)O)NC(=O)[C@H](CC(C)C)NC(=O)[C@H](Cc2ccc(O)cc2)NC(=O)[C@H](CCCCN)NC(=O)[C@H](CO)NC(=O)[C@H](Cc2ccc(O)cc2)NC(=O)[C@H](CC(=O)O)NC(=O)[C@H](CO)NC(=O)[C@@H](NC(=O)[C@H](Cc2ccccc2)NC(=O)[C@@H](NC(=O)CNC(=O)[C@H](CCC(N)=O)NC(=O)C(C)(C)NC(=O)[C@@H](N)Cc2c[nH]cn2)[C@@H](C)O)[C@@H](C)O)C(=O)NC(C)(C)C(N)=O)[C@@H](O)[C@H](O)[C@H]1O
420 nM | CCCCCCCCCCCCO[C@@H]1O[C@H](C(=O)NCCCC[C@H](NC(=O)C(C)(C)NC(=O)[C@H](CC(=O)O)NC(=O)[C@H](CC(C)C)NC(=O)[C@H](Cc2ccc(O)cc2)NC(=O)[C@H](CCCCN)NC(=O)[C@H](CO)NC(=O)[C@H](Cc2ccc(O)cc2)NC(=O)[C@H](CC(=O)O)NC(=O)[C@H](CO)NC(=O)[C@@H](NC(=O)[C@](C)(Cc2ccccc2)NC(=O)[C@@H](NC(=O)CNC(=O)[C@H](CCC(N)=O)NC(=O)C(C)(C)NC(=O)[C@@H](N)Cc2c[nH]cn2)[C@@H](C)O)[C@@H](C)O)C(N)=O)[C@@H](O)[C@H](O)[C@H]1O
